According to paper PMC11310081, “Deep-learning-enabled antibiotic discovery through molecular de-extinction” (Nature Biomedical Engineering, 2024):
≈ marks a conversion by molar mass, not a printed value.

Experiments:
[1] = test system: 11 clinically relevant bacterial pathogens; assay type: cell-based; details: Supplementary Dataset 2; against the 11 pathogens tested
Text: (§1) The following Gram-negative bacteria were used in our study: A. baumannii ATCC 19606, E. coli ATCC 11775, E. coli AIC221 (E. coli MG1655 phnE_2::FRT), E. coli AIC222 (E. coli MG1655 pmrA53 phnE_2::FRT (colistin resistant)), K. pneumoniae ATCC 13883, P. aeruginosa PAO1 and P. aeruginosa PA14. The following Gram-positive bacteria were also used in our study: S. aureus ATCC 12600, S. aureus ATCC BAA-1556 (methicillin-resistant strain), E. faecalis ATCC 700802 (vancomycin-resistant strain) and E. faecium ATCC 700221 (vancomycin-resistant strain). Bacteria were grown from frozen stocks and plated on Luria–Bertani (LB) or Pseudomonas isolation agar plates (P. aeruginosa strains) and incubated overnight at 37 °C. After the incubation period, a single colony was transferred to 5 ml of LB medium, and cultures were incubated overnight (16 h) at 37 °C. The following day, an inoculum was prepared by diluting the overnight cultures 1:100 in 5 ml of the respective media and incubating them at 37 °C until bacteria reached logarithmic phase (OD600 = 0.3–0.5).
(§2) The in vitro antimicrobial activity of the peptides was assessed by using the broth microdilution assay. […] Aqueous solutions of the peptides were added to the plate at concentrations ranging from 1 to 64 μmol l^−1. […] The optical density of the plates was measured at 600 nm using a spectrophotometer. All assays were done as three biological replicates.

HEK293T cells = details: 24 h
Protocol: HEK293T cells were obtained from the American Type Culture Collection (CRL-3216). The cells were cultured in high-glucose Dulbecco’s modified Eagle’s medium supplemented with 1% penicillin and streptomycin (antibiotics) and 10% fetal bovine serum and grown at 37 °C in a humidified atmosphere containing 5% CO2.
One day before the experiment, an aliquot of 100 μl of the cells at 50,000 cells per ml was seeded into each well of the cell-treated 96-well plates used in the experiment (that is, 5,000 cells per well). […] After the incubation period, we performed the 3-(4,5-dimethylthiazol-2-yl)-2,5-diphenyltetrazolium bromide tetrazolium reduction assay (MTT assay)[53]. The MTT reagent was dissolved at 0.5 mg ml^−1 in medium without phenol red and was used to replace cell culture supernatants containing the peptides (100 μl per well), and the samples were incubated for 4 h at 37 °C in a humidified atmosphere containing 5% CO2 yielding the insoluble formazan salt. The resulting salts were then resuspended in hydrochloric acid (0.04 mol l^−1) in anhydrous isopropanol and quantified by spectrophotometric measurements of absorbance at 570 nm. All assays were done as three biological replicates.
Unless otherwise stated, all assays were performed in three independent biological replicates as indicated in each figure legend and Methods sections. The cytotoxic activities values were estimated using non-linear regression based on the range of concentrations screened and were shown as the values that cause lysis of 50% of the cells in the experiment. Two technical replicates were performed in the cytotoxicity assays within each of the three biological replicates.

A. baumannii ATCC 19606 [2] = assay type: cell-based, Acinetobacter baumannii; details: ATCC 19606, 20 h
Text: as §1, §2

A. baumannii ATCC 19606 [3] = test: Cytoplasmic membrane depolarization assay (DiSC3-5); assay type: cell-based, Acinetobacter baumannii; details: DiSC3-5 fluorescence, peptide at its MIC, polymyxin B as positive control; three replicates
Protocol: The depolarization of the bacterial cytoplasmic membrane was determined by fluorescence measurements of the membrane potential-sensitive dye, DiSC3-5 (ref. [16]). Briefly, A. baumannii ATCC 19606 and P. aeruginosa PAO1 were grown at 37 °C until mid-log phase (OD600 = 0.5). The cells were then centrifuged using the same conditions described for the NPN uptake assays, washed twice with washing buffer containing 20 mmol l^−1 glucose and 5 mmol l^−1 HEPES (pH 7.2). The cells were diluted 1:10 (OD600 = 0.05) in a buffer containing 0.1 mol l^−1 KCl, 20 mmol l^−1 glucose and 5 mmol l^−1 HEPES (pH 7.2). About 100 μl of bacterial solution was then incubated for 15 min with 20 nmol l^−1 of DiSC3-5 until the fluorescence reached a plateau, that is, the dye was fully internalized into the bacterial membrane. Transmembrane potential changes were monitored by observing the difference in the fluorescence emission intensity of DiSC3-5 (λex = 622 nm, λem = 670 nm), after the addition of 100 μl of peptide aqueous solution at its MIC. All assays were performed in three biological replicates. The relative fluorescence values were calculated for the course of the experiment using non-linear fitting, and the untreated control (buffer + bacteria + fluorescent dye) served as baseline. […]

K. pneumoniae ATCC 13883 = assay type: cell-based, Klebsiella pneumoniae; details: ATCC 13883, 20 h
Text: as §1
as §2, with “All assays were done as three biological replicates.” left out

Row | SMILES | Active or Inactive [1] | CC50 (HEK293T cells) [µM] | Minimal inhibitory concentration, A. baumannii ATCC19606 (A. baumannii ATCC 19606 [2]) [µM] | Cytoplasmic membrane depolarization, in words (A. baumannii ATCC 19606 [3]) | TI (therapeutic index) (HEK293T cells) | Minimal inhibitory concentration, K. pneumoniae ATCC133883 (K. pneumoniae ATCC 13883) [µM]
1 | CC[C@H](C)[C@H](NC(=O)CNC(=O)[C@@H](NC(=O)[C@@H]1CCCN1C(=O)[C@@H](NC(=O)[C@@H](NC(=O)[C@@H](NC(=O)[C@@H](NC(=O)[C@H](CCCCN)NC(=O)[C@H](CCCCN)NC(=O)[C@H](CCCCN)NC(=O)[C@H](CCCCN)NC(=O)[C@H](CC(C)C)NC(=O)CNC(=O)[C@H](CCC(N)=O)NC(=O)[C@@H](NC(=O)[C@H](Cc1ccc(O)cc1)NC(=O)[C@H](CCCNC(=N)N)NC(=O)[C@@H](NC(=O)[C@H](CC(C)C)NC(=O)[C@H](CC(N)=O)NC(=O)[C@@H](N)CCCNC(=N)N)C(C)C)C(C)C)C(C)C)[C@@H](C)CC)C(C)C)[C@@H](C)CC)C(C)C)C(=O)NCC(=O)N1CCC[C@H]1C(=O)N[C@@H](Cc1c[nH]cn1)C(=O)N[C@@H](C)C(=O)N[C@@H](CC(N)=O)C(=O)N[C@H](C(=O)N[C@@H](CCCCN)C(=O)O)[C@@H](C)CC [Hydrodamin-3] | Active | > 128 | 16 (≈ 51.8 µg/mL) |  |  | 
2 | CC[C@H](C)[C@H](NC(=O)[C@@H](NC(=O)[C@H](CCCCN)NC(=O)[C@H](CCCCN)NC(=O)[C@H](CCCCN)NC(=O)[C@H](CCCCN)NC(=O)[C@H](CC(C)C)NC(=O)CNC(=O)[C@H](CCC(N)=O)NC(=O)[C@@H](NC(=O)[C@H](Cc1ccc(O)cc1)NC(=O)[C@H](CCCNC(=N)N)NC(=O)[C@@H](NC(=O)[C@H](CC(C)C)NC(=O)[C@H](CC(N)=O)NC(=O)[C@H](CCCNC(=N)N)NC(=O)[C@H](C)NC(=O)[C@H](CCSC)NC(=O)[C@@H](N)CCCNC(=N)N)C(C)C)C(C)C)C(C)C)C(=O)O [Hydrodamin-2] | Active | > 128 | 16 (≈ 36.8 µg/mL) | most potent depolarization effects |  | 
3 | CC[C@H](C)[C@H](N)C(=O)N[C@@H](Cc1ccccc1)C(=O)N[C@@H](CO)C(=O)N[C@@H](CC(C)C)C(=O)N[C@@H](Cc1c[nH]cn1)C(=O)N[C@@H](CC(C)C)C(=O)N[C@@H](C)C(=O)NCC(=O)N[C@H](C(=O)N[C@@H](CO)C(=O)N[C@@H](CO)C(=O)N[C@H](C(=O)N[C@@H](CC(C)C)C(=O)O)[C@@H](C)CC)[C@@H](C)CC [Ursusin-1] | Active | > 128 |  |  | > 2 | 64 (≈ 87.7 µg/mL)
4 | CC(C)C[C@H](NC(=O)CNC(=O)[C@H](CCCNC(=N)N)NC(=O)[C@H](CCCCN)NC(=O)[C@@H](N)CCCNC(=N)N)C(=O)N[C@@H](CCCCN)C(=O)N[C@@H](CC(C)C)C(=O)N[C@@H](C)C(=O)N[C@H](C(=O)N[C@@H](C)C(=O)N[C@@H](CC(C)C)C(=O)N[C@@H](CO)C(=O)N[C@@H](CC(C)C)C(=O)N[C@@H](CC(N)=O)C(=O)N[C@@H](CC(N)=O)C(=O)N[C@@H](CCCCN)C(=O)N[C@@H](Cc1ccccc1)C(=O)N[C@H](C(=O)O)C(C)C)[C@@H](C)O [Mylodonin-4] | Active | > 128 | 64 (≈ 130 µg/mL) | most potent depolarization effects |  | 
